# Results published in paper PMC9242648.
# Experiments:
# Test in all cases: optical trap (harmonic force spectroscopy); single sS1-eGFP molecules held on platform beads by anti-GFP antibody; actin dumbbell between two trapped streptavidin beads; stage oscillation 200 Hz; 2 mM ATP; 25 mM imidazole pH 7.5, 25 mM KCl, 4 mM MgCl2, 1 mM EGTA, 10 mM DTT, 1 mg/mL BSA; 23°C; k0 from the fit of load-dependent detachment …
# [1] = molecular target: human β-cardiac myosin short subfragment 1 (sS1-eGFP) with ELC, wild type (human) (UniProt P12883)
# [2] = molecular target: human β-cardiac myosin short subfragment 1 (sS1-eGFP) with ELC, L781P (human) (UniProt P12883)
# [3] = molecular target: human β-cardiac myosin short subfragment 1 (sS1-eGFP) with ELC, D778V (human) (UniProt P12883)
# [4] = molecular target: human β-cardiac myosin short subfragment 1 (sS1-eGFP) with ELC, S782N (human) (UniProt P12883)
substance,measurement,setting,value
TMR-phalloidin-labeled biotinylated actin filaments (from UniProt P68135 1-377) (natural protein),k0 (detachment rate from actin at zero load force),[1],147 s^–1
same,k0 (detachment rate from actin at zero load force),[2],102 s^–1
same,k0 (detachment rate from actin at zero load force),[3],316 s^–1
same,k0 (detachment rate from actin at zero load force),[4],145 s^–1
